According to PubChem BioAssay (EPA / NIEHS):
Only a part is listed here, and it is no random draw. The source made the active and inactive calls. Rule for the calls: active = hit-call score of the fitted dose curve at least 0.9, where 1 is the maximum; inactive = score below 0.9.

assay: ATG_M_06_CIS: Attagene CIS-FACTORIAL HepG2 Assay for M06 Transcription Factor (Internal Marker) (AID 2282950); conditions: HepG2 Attagene CIS-FACTORIAL M06 internal marker reporter; actives raise or lower the signal
Description: ATG_CIS is a cell-based, multiplexed-readout assay that uses HepG2, a human liver cell line, with measurements taken at 24 hours after chemical dosing in a 24-well plate.ATG_M_06_CIS is one of 52 assay component(s) measured or calculated from the ATG_CIS assay. It is designed to make measurements of mRNA induction, a form of inducible reporter, as detected with fluorescence intensity signals by Reverse transcription polymerase chain reaction (RT-PCR) and Capillary electrophoresis technology.Data from the assay component ATG_M_06_CIS was analyzed into 1 assay endpoint. This assay endpoint, ATG_M_06_CIS, was analyzed with bidirectional fitting relative to DMSO as the negative control and baseline of activity. Using a type of inducible reporter, measures of mRNA for gain or loss-of-signal activity can be used to understand the background control at the transcription factor-level as they relate to the gene . Furthermore, this assay endpoint can be referred to as a secondary readout, because this assay has produced multiple assay endpoints where this one serves a background control function. To generalize the intended target to other relatable targets, this assay endpoint is annotated to the background measurement intended target family, where the subfamily is internal marker.
Human liver HepG2 cells are transiently transfected with multiple reporter transcription units (MRTUs) in 6-well plates using FuGene 6 reagent (Roche; 3 ml FuGene/1 mg DNA). The MRTU constructs are regulated by a cis-regulating element (promoter). […] A major difference between the CIS and TRANS system is that in CIS activities of endogenous TFs are measured, whereas the TRANS assay evaluates changes in activities of exogenous, chimeric NR-Gal4 proteins. […] At the end of 24 hour incubation, total RNA was isolated using TriZol reagent (Invitrogen). The isolated RNA is then reverse-transcribed using oligo(dT) primer and Mo-MLV reverse transcriptase (Invitrogen) with DNAse I (Ambion) treatment for 30 min. The one-tenth of the produced cDNA was amplified by PCR using Taq DNA polymerase (Invitrogen) and two reporter sequence-specific primers. The PCR products were fluorescently labeled by primer extension with 6-arboxyfluorescein (6-FAM) 5'-labeled reporter sequence-specific primer (2 min at 95 C, 20 s at 68 C and 10 min at 72 C) and these products were digested with 5U of HpaI (New England Biolabs) for 2h at 37 C. The fragments were purified using Qiaquick PCR columns (Qiagen), analyzed on an ABI 3130xL genetic analyzer (Applied Biosystems) with peak positions identified by using a set of X-rhodamine (ROX)-labeled MapMarker1000 molecular weight standards (BioVentures). The raw capillary electrophoresis data was processed using Attagraph software (Attagene).

SMILES | outcome
Cc1ccc([N+](=O)[O-])c([N+](=O)[O-])c1 | inactive
CC(C)N(CCO)C(C)C | inactive
CC(C)OP(C)(=O)OC(C)C | inactive
O=[N+]([O-])OCC(CO[N+](=O)[O-])(CO[N+](=O)[O-])CO[N+](=O)[O-] | inactive
COP(C)(=O)OC | inactive
Cc1c([N+](=O)[O-])cccc1[N+](=O)[O-] | inactive
Cc1cccc([N+](=O)[O-])c1[N+](=O)[O-] | inactive
O=[N+]([O-])c1cccc([N+](=O)[O-])c1 | inactive
COc1ccc([N+](=O)[O-])cc1[N+](=O)[O-] | inactive
N#CBr | inactive
Cc1ccc([N+](=O)[O-])cc1[N+](=O)[O-] | inactive
CN(C)CCCl | inactive
